Measured values published in a protein production outcome set (Wang et al. 2014).

Assay: label from the status in PepcDB records

| Sequence | protein production |
| --- | --- |
| MPVKRSLKLDGLLEENSFDPSKITRKKSVITYSPTTGTCQMSLFASPTSSEEQKHRNGLSNEKRKKLNHPSLTESKESTTKDNDEFMMLLSKVEKLSEEIMEIMQNLSSIQALEGSRELENLIGISCASHFLKREMQKTKELMTKVNKQKLFEKSTGLPHKASRHLDSYEFLKAILN | failed |
| SEEQPQMQDADEPADSGGEGRAGGPPQVAGAQAACSEDRMTLLLRLRAQTKQQLLEYKSMVDASEEKTPEQIMQEKQIEAKIEDLENEIEEVKVAFEIKKLALDRMRLSTALKKNLEKISRQSSVLMDNMKHLLELNKLIMKSQQESWDLEEKLLDIRKKRLQLKQASESKLLEIQTEKNKQKIDLDSMENSERIKIIRQNLQMEIKITTVIQHVFQNLILGSKVNWAEDPALKEIVLQLEKNVDMM | failed |
